# Data from PubChem BioAssay AID489030 (Sanford-Burnham Center for Chemical Genomics, 2010).
# Sequences of proteins named here, by UniProt entry; tags and fusion partners are left off. A change or cut given only in a name is not applied to a line headed by its entry.
# UniProt O14727: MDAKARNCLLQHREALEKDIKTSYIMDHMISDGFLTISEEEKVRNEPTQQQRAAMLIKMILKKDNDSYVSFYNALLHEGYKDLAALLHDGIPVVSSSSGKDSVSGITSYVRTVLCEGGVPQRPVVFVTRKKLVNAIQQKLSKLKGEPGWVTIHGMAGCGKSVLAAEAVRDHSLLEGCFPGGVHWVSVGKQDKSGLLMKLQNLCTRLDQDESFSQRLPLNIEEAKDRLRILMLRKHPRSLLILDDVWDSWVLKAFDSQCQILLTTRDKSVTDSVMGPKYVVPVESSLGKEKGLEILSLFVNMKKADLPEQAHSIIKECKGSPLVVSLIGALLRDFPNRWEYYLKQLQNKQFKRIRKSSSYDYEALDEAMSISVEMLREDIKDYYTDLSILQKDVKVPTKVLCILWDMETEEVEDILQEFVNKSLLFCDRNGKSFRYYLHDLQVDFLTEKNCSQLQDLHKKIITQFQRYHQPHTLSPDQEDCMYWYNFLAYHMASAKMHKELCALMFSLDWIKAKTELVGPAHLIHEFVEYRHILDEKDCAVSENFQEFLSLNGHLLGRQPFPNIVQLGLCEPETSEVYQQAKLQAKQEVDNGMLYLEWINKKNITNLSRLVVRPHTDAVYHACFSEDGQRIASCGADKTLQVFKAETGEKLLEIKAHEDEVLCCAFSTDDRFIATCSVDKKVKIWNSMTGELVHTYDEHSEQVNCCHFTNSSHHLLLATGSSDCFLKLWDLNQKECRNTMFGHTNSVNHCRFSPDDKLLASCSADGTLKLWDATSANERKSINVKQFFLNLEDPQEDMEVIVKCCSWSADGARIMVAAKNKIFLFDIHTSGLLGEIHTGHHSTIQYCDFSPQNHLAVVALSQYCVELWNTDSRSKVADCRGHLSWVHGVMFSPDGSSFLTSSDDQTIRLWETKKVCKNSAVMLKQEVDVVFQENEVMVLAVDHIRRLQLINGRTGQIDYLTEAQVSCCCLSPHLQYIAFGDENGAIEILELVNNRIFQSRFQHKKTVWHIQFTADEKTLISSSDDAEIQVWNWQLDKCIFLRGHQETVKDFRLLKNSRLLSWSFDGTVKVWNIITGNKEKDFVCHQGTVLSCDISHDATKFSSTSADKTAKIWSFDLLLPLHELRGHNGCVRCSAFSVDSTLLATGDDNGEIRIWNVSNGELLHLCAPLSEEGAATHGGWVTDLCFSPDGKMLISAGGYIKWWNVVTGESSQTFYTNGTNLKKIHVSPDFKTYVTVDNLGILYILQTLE
# Only a part is listed here, and it is no random draw. Calls of active or inactive are those of the source. Rule for the calls: active = inhibition of at least 40% at 20 µM; inactive = the rest.
# Target: Apoptotic protease-activating factor 1 (Homo sapiens) (UniProt O14727)
# Assay: blockers of Apaf-1-driven caspase-3 activation – biochemical, DEVD-Rh110 fluorescence, uHTS, primary screen (AID 489030);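 note: plate controls were DMSO wells for no effect and DEVD-CHO caspase inhibitor wells for full effect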
# Conditions: reconstituted apoptosome caspase-3 activity, at 20 µM, stronger effect = higher value
row,SMILES,inhibition
1,Cc1cc(SC(NC(=O)c2ccccc2)C(Cl)(Cl)Cl)nc(C(C)C)n1 (configuration not stated),inactive: 1.72%
2,CCCCOc1ccc(C(=O)NCC2(N3CCCCC3)CCCCC2)cc1OC,inactive: -4.39%
3,CCOC(=O)Nc1ccc([As](=O)(O)O)c(O)c1,inactive: 0.404%
4,O=P(Nc1ccccn1)(c1cccc2ccccc12)c1cccc2ccccc12,inactive: 17.1%
5,Cc1cc(SC(NC=O)C(Cl)(Cl)Cl)ncn1 (configuration not stated),inactive: 1.18%
6,CCOC(=O)Nc1cccc([As](=O)(O)O)c1,inactive: -5.7%
7,O=C(Nc1ccncc1[N+](=O)[O-])c1ccc([N+](=O)[O-])cc1[N+](=O)[O-],inactive: -2.59%
8,O=C(COc1ccccc1)OC1CN2CCC1CC2 (configuration not stated),inactive: 5.03%
9,COP1(=S)c2c(C)nn(CCC#N)c2N=C(c2ccc(F)cc2)N1C (configuration not stated),inactive: -17%
10,CCC(C)N(CC(C)C)C(=S)SC(NC(C)=O)C(Cl)(Cl)Cl (configuration not stated),inactive: -2.35%
11,O=C(OC1CN2CCC1CC2)c1cccc([N+](=O)[O-])c1 (configuration not stated),inactive: -3.42%
12,CCOC(=O)c1ccc(NC(=O)C(C)(CCl)SC)cc1 (configuration not stated),inactive: -1.16%
13,COc1cc(I)ccc1[As](=O)(O)O,inactive: -15.2%
14,COc1ccc2nc(NP(=O)(c3ccccc3)c3ccccc3)sc2c1,inactive: 2%
15,Cc1c2c(nc3ccccc13)SC(C(Cl)Cl)C2 (configuration not stated),inactive: -0.301%
16,Cc1cc(=O)[nH]c(N[N+](=O)[O-])n1,inactive: -3.84%
17,O=C(OC1CN2CCC1CC2)C12CC3CC(CC(C3)C1)C2 (configuration not stated),inactive: 7.92%
18,COc1ccc(N/C(=N/P(=O)(N2CCOCC2)N2CCOCC2)N2CCOCC2)cc1,inactive: -5.05%
19,Cc1ccc(OP(=O)(Nc2ccc([N+](=O)[O-])cn2)Oc2ccc(C)cc2)cc1,inactive: 20.5%
20,Cc1ccc2nc3c(c(C)c2c1)CC(C(Cl)Cl)S3 (configuration not stated),inactive: 8.94%
21,COc1cc(C(=O)NCC2(N3CCOCC3)CCCCC2)ccc1OCC(C)C,inactive: 6.76%
22,C[As](=O)(O)c1cccc(C(=O)O)c1,inactive: 0.19%
23,O=[As](O)(c1ccc(O)cc1)c1ccccc1O,inactive: -244%
24,O=[N+]([O-])c1cc([N+](=O)[O-])c(-c2ccn[nH]2)s1,inactive: 3.93%
25,O=C(OC1CN2CCC1CC2)c1cccc2[nH]cnc12 (configuration not stated),inactive: 0.405%
26,CCN(CC)C(=S)SC(NC=O)C(Cl)(Cl)Cl (configuration not stated),inactive: 2.75%

row,SMILES,inhibition
1,CC(C)NC(=O)NP(=O)(Oc1ccccc1)Oc1ccccc1,inactive: -7.79%
2,ClCCSc1nnc(-c2cccnc2)o1,inactive: -30.6%
3,CC(C)c1ccc(OP(=O)(Nc2ccccn2)Oc2ccccc2F)cc1 (configuration not stated),inactive: 6.65%
4,Nc1ccccc1[As](=O)(O)c1ccccc1,inactive: 8.28%
5,O=C(O)COc1ccc([As](=O)(O)O)cc1[N+](=O)[O-],inactive: -3.15%
6,O=P(Nc1nccs1)(c1ccccc1)c1nc2ccccc2s1 (configuration not stated),inactive: 6.54%
7,O=P(Nc1nccs1)(Oc1ccccc1)Oc1ccccc1,inactive: 8.87%
8,CCOP1(=S)c2c(C)nn(CCC#N)c2N=C(c2ccccc2F)N1C (configuration not stated),inactive: -16.1%
9,CS(=O)(=O)c1cc([N+](=O)[O-])c2no[n+]([O-])c2c1,inactive: 11.9%
10,CCOP1(=S)c2c(C)nn(CCC#N)c2N=C(c2ccc(F)cc2)N1C (configuration not stated),inactive: -17.2%
11,CN(C(=O)Cc1ccccc1)[C@@H]1CC[C@]2(CCCO2)C[C@H]1N1CCCC1,inactive: -7.03%
12,N#CCCN(C(=O)COC(=O)C(O)(c1ccccc1)c1ccccc1)c1ccc(F)cc1,inactive: -3.31%
13,CN(C(=O)Cc1ccc(Cl)c(Cl)c1)[C@H]1CC[C@@]2(CCCO2)C[C@@H]1N1CCCC1,inactive: -4.78%
14,CN(C)C(=O)c1cc([N+](=O)[O-])cc2c1-c1c(cc([N+](=O)[O-])cc1[N+](=O)[O-])C2=O,inactive: 24.9%
15,O=[N+]([O-])c1ccc2c(c1)nnn2O,inactive: -13.1%
16,NC(=O)Nc1ccc([As](=O)(O)O)cc1,inactive: -1.24%
17,O=[As](O)(c1cccc(O)c1)c1cccc(O)c1,inactive: -23.5%
18,Cc1cccc(OCC(=O)OC2CN3CCC2CC3)c1 (configuration not stated),inactive: 2.27%
19,O=C(OC1CN2CCC1CC2)c1ccc(Cl)cc1 (configuration not stated),inactive: -21.2%
20,CS(=O)(=O)c1ccc(Cl)c(NC(=O)COC(=O)C(O)(c2ccccc2)c2ccccc2)c1,inactive: -7.46%
21,COc1cc(C(=O)NCC2(N3CCOCC3)CCCCC2)cc(Cl)c1OC(C)C,inactive: 10.5%
22,O=[As](O)(O)c1cccnc1,inactive: -3.55%
23,CCOP(=O)(Nc1cccc2ccccc12)OCC,inactive: -12.9%
24,COc1cc(C2NCCC3(OCCO3)C2(C)C)cc(OC)c1OC (configuration not stated),inactive: -7.35%
25,Cc1ccc(NCCc2c([N+](=O)[O-])cc([N+](=O)[O-])cc2[N+](=O)[O-])cc1,inactive: 20.4%
26,CCCOP(=S)(Nc1nc(N)cc(=O)[nH]1)OCCC,inactive: 16.3%

row,SMILES,inhibition
1,CC(C)(C)C(=O)NC(Sc1ncccn1)C(Cl)(Cl)Cl (configuration not stated),inactive: 1.81%
2,Clc1n[nH]nc1-c1nn[nH][15n]1,inactive: -4.96%
3,CCOP(=O)(NC(=NC(C)c1ccccc1)NC(C)c1ccccc1)OCC (configuration not stated),inactive: 11.7%
4,O=P1(Nc2ccccn2)COc2ccccc2OC1,inactive: 0.297%
5,CCC1=CC2Cc3nc4ccc(Cl)cc4c(N)c3C(C1)C2 (configuration not stated),inactive: 15.1%
6,CN(CCCl)Cc1cc(Cl)c(NC2=NCCN2)c(Cl)c1,inactive: 3.37%
7,CCOP(=O)(Nc1ccc(C)cn1)OCC,inactive: 3.33%
8,CC(C)/C=N\N=C(\N)N[N+](=O)[O-],inactive: 4.15%
9,CN(C(=O)Cc1ccc(Cl)c(Cl)c1)[C@@H]1CCCC[C@H]1N1CCCC1,inactive: 17.1%
10,CC1(CBr)Cn2c(nc3ccccc3c2=O)S1 (configuration not stated),inactive: -3.27%
11,O=[As](O)(c1ccccc1Br)c1ccccc1Br,inactive: 0.619%
12,COc1ccccc1CNC(=O)COC(=O)C(O)(c1ccccc1)c1ccccc1,inactive: 8.71%
13,CN(C)C1(CNC(=O)c2ccc(S(C)(=O)=O)cc2)CCCCC1,inactive: -1.39%
14,O=C(/C=C/c1ccccc1)OC1CN2CCC1CC2 (configuration not stated),inactive: -13.3%
15,CC1CCC(C(C)C)C(OP(=O)(Nc2ccccn2)c2ccccc2)C1 (configuration not stated),inactive: 12.2%
16,Cc1ccc(C(=O)OC2CN3CCC2CC3)cc1 (configuration not stated),inactive: -1.66%
17,Cc1nn(-c2ccccc2)c2c1P(=O)(N1CCOCC1)N(C)C(c1ccccc1)=N2 (configuration not stated),inactive: -10.2%
18,Nc1cccc([As](=O)(O)c2ccccc2)c1,inactive: 4.25%
19,O=P1(Nc2ccc(Br)cn2)COc2ccccc2OC1,inactive: 8.02%
20,NS(=O)(=O)c1cccc(NC(=O)COC(=O)C(O)(c2ccccc2)c2ccccc2)c1,inactive: 0.171%
21,O=[As](O)(c1cccs1)c1cccs1,inactive: -2.83%
22,Cc1ccc(OCC(=O)OC2CN3CCC2CC3)cc1 (configuration not stated),inactive: -1.67%
23,O=P1(Nc2ncccn2)COc2ccccc2OC1,inactive: 4.67%
24,C[C@H]1OP(=O)(Oc2ccccc2)[C@H](O)[C@H](O)[C@H]1N=[N+]=[N-] (some centres not stated),inactive: -9.11%
25,O=P(Nc1nc2ccccc2s1)(c1ccccc1)c1ccccc1,inactive: 0.769%
26,O=P(Nc1ccccn1)(c1ccc(Br)cc1)c1ccc(Br)cc1,inactive: 6.73%

row,SMILES,inhibition
1,CN(C)C1(CNC(=O)c2ccc(Cl)c(S(N)(=O)=O)c2)CCCCC1,inactive: -0.918%
2,O=C(OC1CN2CCC1CC2)c1cccc(Cl)c1 (configuration not stated),inactive: -5.78%
3,Nc1ccc([As](=O)(O)c2ccc([N+](=O)[O-])cc2)cc1,inactive: -15.2%
4,C(Cc1nn[nH]n1)Cc1nn[nH]n1,inactive: -2.73%
5,O=[As](O)(c1ccccc1)c1ccc(O)cc1,inactive: 10%
6,O=[N+]([O-])c1ncn(CCn2cnc([N+](=O)[O-])n2)n1,inactive: -16.7%
7,c1nnnn1CCn1cnnn1,inactive: 12%
8,CC(C)C(=O)NC(Sc1ccccc1)C(Cl)(Cl)Cl (configuration not stated),inactive: -9.74%
9,O=P(Nc1nccs1)(c1ccccc1)c1ccccc1,inactive: -5.85%
10,CC(C)(C)C(=O)NC(Sc1ccccc1)C(Cl)(Cl)Cl (configuration not stated),inactive: 6.32%
11,CCOc1ccc(C2=NCC(CBr)S2)cc1 (configuration not stated),inactive: -2.48%
12,O=P1(Nc2nc3ccc(Cl)cc3s2)COc2ccccc2O1 (configuration not stated),inactive: 0.662%
13,CC(=O)Nc1ccc([As](=O)(O)O)c(O)c1,inactive: 1.86%
14,C[C@@H]1C=CCP(=O)(Oc2ccccc2)O1 (some centres not stated),inactive: -3.93%
15,C[C@H]1OP(=O)(Oc2ccccc2)C[C@@H]2O[C@@H]21 (some centres not stated),inactive: -7.42%
16,Cc1ccccc1CN(C)C(=O)COC(=O)C(O)(c1ccccc1)c1ccccc1,inactive: 17.7%
17,CC(=O)c1ccc(N2CC2c2ccncc2)cc1 (configuration not stated),inactive: 2.26%
18,CCOC(=O)NC(Sc1ccccc1)C(Cl)(Cl)Cl (configuration not stated),inactive: 3.68%
19,Cc1ccc(NP(=O)(Oc2cccc(C)c2)Oc2cccc(C)c2)nc1,inactive: -0.045%
20,c1ccc(-c2nn[nH]n2)c(-c2nn[nH]n2)c1,inactive: 2.89%
21,CCNC(=S)/N=C(\N)N[N+](=O)[O-],inactive: -15.1%
22,O=C(NC1CCS(=O)(=O)C1)NP(=S)(Oc1ccccc1)Oc1ccccc1 (configuration not stated),inactive: -2.37%
23,CN(C)C(=O)Oc1noc2ccccc12,inactive: -1.64%
24,Cc1ccccc1OP(=O)(Nc1ccccn1)Oc1ccccc1C,inactive: 9.6%
